This passage reports inhibition results from PubChem BioAssay AID651572 (The Scripps Research Institute Molecular Screening Center, 2012).

Sequences of proteins named here, by UniProt entry; tags and fusion partners are left off. Residues count along the entry.
UniProt Q62848, 1-136 limits assumed: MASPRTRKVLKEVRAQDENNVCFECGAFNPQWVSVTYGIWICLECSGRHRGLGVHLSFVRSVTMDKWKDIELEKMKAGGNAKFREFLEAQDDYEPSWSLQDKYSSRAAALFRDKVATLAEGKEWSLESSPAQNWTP

Molecules are shown by their SMILES. The list shows a part of the results, in another mix than the full data. Active and inactive are the calls of the source.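 How the source made its calls: active means inhibition above a per-plate limit, mean inhibition of low control wells plus 3 SD (cut at about 25% in these data); inactive means the rest.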

In this assay the target is ADP-ribosylation factor GTPase-activating protein 1 (Rattus norvegicus) (UniProt Q62848). In words: blockers of ARFGAP1-stimulated ARF1 GTP hydrolysis – biochemical, fluorescence polarization, GDP tracer, primary screen (AID 651572).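 Further: 0% = DMSO wells with enzyme and 100% = wells lacking Arfgap1.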 Conditions: GDP FP detection, at 16.5 µM, stronger effect = higher value. A digest of the protocol:
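Material – truncated rat Arfgap1 GAP domain · Buffer or medium – HEPES-based buffer, pH 7.5 · Reagent – human ARF1(Δ1-17)-GTP substrate · Dosing – 16.5 µM single point, 1.26% DMSO · Schedule – GTP hydrolysis reaction 2 h at 25 °C · Technique – GDP detection by fluorescence polarization · Benchmarks – No-Arfgap1 wells (100%) versus DMSO full-reaction wells (0%) · Repeats – single replicate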
(Polarisation of emitted light reports the rotation of a fluorescent probe.)
Regarding `CCC(=O)N(c1ccccc1)C1(COC)CCN(CCn2nnn(CC)c2=O)CC1`, the inhibition is inactive: 7.08%.

Take `CCC(=O)N(c1ccccc1)C1(COC)CCN(CCc2cccs2)CC1`: the inhibition was inactive: 3.44%.

The inhibition is the change of the read-out against control, counted positive when it falls.
